Measurements: the NIST ThermoML archive (doi:10.1016/j.fluid.2019.02.028)
± gives the expanded uncertainty stated by the source.

Test: xn = mol fraction of the nth substance listed
Conditions: Liquid, Vibrating tube method

CCCCOCCCC [dibutyl ether] + CCCCCCC
mass density [kg/m3]
Conditions	x1 = 0.325	x1 = 0.5	x1 = 0.675	x1 = 0.85
298.15 K, 100 kPa	724.4 ± 7	738.6 ± 7	749.5 ± 7	763.8 ± 7
298.15 K, 1000 kPa	725.2 ± 7	739.4 ± 7	750.4 ± 7	764.7 ± 7
298.15 K, 5000 kPa	728.9 ± 7	743.1 ± 7	754 ± 7	768.2 ± 7
298.15 K, 10000 kPa	733.2 ± 7	747.4 ± 7	758.2 ± 7	772.4 ± 7
298.15 K, 15000 kPa	737.3 ± 7	751.4 ± 7	762.3 ± 7	776.4 ± 7
298.15 K, 20000 kPa	741.1 ± 7	755.2 ± 7	766.1 ± 7	780.2 ± 7
298.15 K, 25000 kPa	744.9 ± 7	758.9 ± 7	769.7 ± 7	783.7 ± 7
298.15 K, 30000 kPa	748.4 ± 7	762.4 ± 7	773.2 ± 7	787.3 ± 7
298.15 K, 35000 kPa	751.7 ± 7	765.7 ± 7	776.6 ± 7	790.6 ± 7
298.15 K, 40000 kPa	754.9 ± 7	769 ± 7	779.7 ± 7	793.8 ± 7
298.15 K, 45000 kPa	758.1 ± 7	772.1 ± 7	782.9 ± 7	796.9 ± 7
298.15 K, 50000 kPa	761.1 ± 7	775.1 ± 7	785.9 ± 7	799.8 ± 7
298.15 K, 55000 kPa	764 ± 7	778 ± 7	788.8 ± 7	802.8 ± 7
298.15 K, 60000 kPa	766.8 ± 7	780.8 ± 7	791.6 ± 7	805.6 ± 7
298.15 K, 65000 kPa	769.6 ± 7	783.5 ± 7	794.3 ± 7	808.3 ± 7
298.15 K, 70000 kPa	772.3 ± 7	786.2 ± 7	797 ± 7	811 ± 7
298.15 K, 80000 kPa	777.3 ± 7	791.3 ± 7	802.1 ± 7	816.1 ± 7
298.15 K, 90000 kPa	782.2 ± 7	796.2 ± 7	807 ± 7	821 ± 7
298.15 K, 100000 kPa	786.8 ± 7.1	800.8 ± 7.1	811.6 ± 7	825.5 ± 7
298.15 K, 110000 kPa	791.2 ± 7.1	805.2 ± 7.1	816 ± 7.1	830 ± 7
298.15 K, 120000 kPa	795.3 ± 7.1	809.4 ± 7.1	820.2 ± 7.1	834.2 ± 7.1
298.15 K, 130000 kPa	799.3 ± 7.1	813.4 ± 7.1	824.2 ± 7.1	838.3 ± 7.1
298.15 K, 140000 kPa	803.2 ± 7.1	817.3 ± 7.1	828.2 ± 7.1	842.1 ± 7.1
313.15 K, 100 kPa	711.3 ± 7	725.5 ± 7	736.5 ± 7	750.7 ± 7
313.15 K, 1000 kPa	712.3 ± 7	726.4 ± 7	737.4 ± 7	751.6 ± 7
313.15 K, 5000 kPa	716.4 ± 7	730.5 ± 7	741.4 ± 7	755.6 ± 7
313.15 K, 10000 kPa	721.1 ± 7	735.1 ± 7	746 ± 7	760.1 ± 7
313.15 K, 15000 kPa	725.5 ± 7	739.6 ± 7	750.4 ± 7	764.5 ± 7
313.15 K, 20000 kPa	729.8 ± 7	743.7 ± 7	754.6 ± 7	768.6 ± 7
313.15 K, 25000 kPa	733.6 ± 7	747.5 ± 7	758.3 ± 7	772.3 ± 7
313.15 K, 30000 kPa	737.6 ± 7	751.5 ± 7	762.2 ± 7	776.2 ± 7
313.15 K, 35000 kPa	741.2 ± 7	755.1 ± 7	765.9 ± 7	779.7 ± 7
313.15 K, 40000 kPa	744.5 ± 7	758.4 ± 7	769.2 ± 7	783.1 ± 7
313.15 K, 45000 kPa	747.9 ± 7	761.8 ± 7	772.5 ± 7	786.4 ± 7
313.15 K, 50000 kPa	751.2 ± 7	765 ± 7	775.8 ± 7	789.7 ± 7
313.15 K, 55000 kPa	754.3 ± 7	768.2 ± 7	778.9 ± 7	792.7 ± 7
313.15 K, 60000 kPa	757.3 ± 7	771.1 ± 7	781.9 ± 7	795.7 ± 7
313.15 K, 65000 kPa	760.1 ± 7	774 ± 7	784.7 ± 7	798.6 ± 7
313.15 K, 70000 kPa	762.9 ± 7	776.8 ± 7	787.5 ± 7	801.4 ± 7
313.15 K, 80000 kPa	768.3 ± 7	782.2 ± 7	792.9 ± 7	806.7 ± 7
313.15 K, 90000 kPa	773.4 ± 7.1	787.3 ± 7	798 ± 7	811.9 ± 7
313.15 K, 100000 kPa	778.2 ± 7.1	792.1 ± 7.1	802.8 ± 7.1	816.7 ± 7
313.15 K, 110000 kPa	782.8 ± 7.1	796.7 ± 7.1	807.5 ± 7.1	821.4 ± 7.1
313.15 K, 120000 kPa	787.2 ± 7.1	801.1 ± 7.1	811.9 ± 7.1	825.7 ± 7.1
313.15 K, 130000 kPa	791.5 ± 7.1	805.4 ± 7.1	816.1 ± 7.1	830.1 ± 7.1
313.15 K, 140000 kPa	795.5 ± 7.1	809.4 ± 7.1	820.2 ± 7.1	834.2 ± 7.1
333.15 K, 100 kPa	693.6 ± 7	707.7 ± 7	718.7 ± 7	733 ± 7
333.15 K, 1000 kPa	694.7 ± 7	708.9 ± 7	719.9 ± 7	734 ± 7
333.15 K, 5000 kPa	699.4 ± 7	713.5 ± 7	724.3 ± 7	738.5 ± 7
333.15 K, 10000 kPa	704.8 ± 7	718.8 ± 7	729.6 ± 7	743.6 ± 7
333.15 K, 15000 kPa	709.9 ± 7	723.9 ± 7	734.6 ± 7	748.6 ± 7
333.15 K, 20000 kPa	714.6 ± 7	728.4 ± 7	739.2 ± 7	753.1 ± 7
333.15 K, 25000 kPa	719 ± 7	732.8 ± 7	743.5 ± 7	757.5 ± 7
333.15 K, 30000 kPa	723.2 ± 7	737 ± 7	747.7 ± 7	761.5 ± 7
333.15 K, 35000 kPa	727.2 ± 7	741 ± 7	751.7 ± 7	765.5 ± 7
333.15 K, 40000 kPa	731 ± 7	744.7 ± 7	755.5 ± 7	769.2 ± 7
333.15 K, 45000 kPa	734.6 ± 7	748.3 ± 7	759 ± 7	772.7 ± 7
333.15 K, 50000 kPa	738.1 ± 7	751.8 ± 7	762.5 ± 7	776.2 ± 7
333.15 K, 55000 kPa	741.4 ± 7	755.1 ± 7	765.8 ± 7	779.6 ± 7
333.15 K, 60000 kPa	744.6 ± 7	758.4 ± 7	769 ± 7	782.7 ± 7
333.15 K, 65000 kPa	747.8 ± 7	761.5 ± 7	772.1 ± 7	785.8 ± 7
333.15 K, 70000 kPa	750.7 ± 7	764.5 ± 7	775.1 ± 7	788.8 ± 7
333.15 K, 80000 kPa	756.5 ± 7.1	770.2 ± 7	780.9 ± 7	794.6 ± 7
333.15 K, 90000 kPa	762 ± 7.1	775.7 ± 7.1	786.3 ± 7	800 ± 7
333.15 K, 100000 kPa	767.1 ± 7.1	780.8 ± 7.1	791.4 ± 7.1	805.2 ± 7.1
333.15 K, 110000 kPa	771.9 ± 7.1	785.7 ± 7.1	796.4 ± 7.1	810 ± 7.1
333.15 K, 120000 kPa	776.5 ± 7.1	790.3 ± 7.1	801 ± 7.1	814.7 ± 7.1
333.15 K, 130000 kPa	781 ± 7.1	794.8 ± 7.1	805.5 ± 7.1	819.3 ± 7.1
